Measured values published in US8389538B2, “Rexinoid compound having alkoxy group” (National University Corporation Okayama University, priority 2007, dated 2013).

Test system: Human leukemia cell strain HL-60
Experiment: HL-60 differentiation induction (NBT reduction method)
Type: cell-based

## CCN(c1ccc(C(C)C)c(OCC(C)C)c1)c1ccc(C(=O)O)cn1
Am80 present at 3.3×10^−10 M, maximum differentiation inducing rate relative to total cell number
  Retinoid synergistic activity BA(%): 81%
read-out: Retinoid activity EC50, test compound alone, concentration giving half of maximum differentiation inducing rate, four days culture
  EC50: > 10000 nM
read-out: Retinoid synergistic activity SEC50, Am80 present at 3.3×10^−10 M, half of maximum differentiation inducing rate
  EC50: 22 nM

Where two headings read alike, the source gives them in different places.
